# “And” between values parts separate entries of the source, which are not always exact repeats. Equal values may be shown once. The hits were mostly taken out for another list; the other results follow. Where a call stands in place of a potency, no number is given. Records with an inconclusive call do not appear. The source made the active and inactive calls. The call rests on the fitted dose curve; in most records, active means well fitted activation curve with a large enough effect in the repeat runs; inconclusive means weak or mixed curves; inactive means no such curve, though single readings can be large or run the other way.
# Target: Nuclear receptor subfamily 1 group I member 2 (Homo sapiens) (UniProt O75469)
# Assay: Human pregnane X receptor (PXR) small molecule agonists, qHTS assay (AID 1346982); further: nearly all actives have a fitted effect of over 35% in size; further: potency means the concentration at half of the fitted maximal effect
# Conditions: PXR-Luc HepG2, CYP3A4 luciferase reporter, 24 h; series mostly up to 42.5 µM
# Method in brief: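 Agonist mode: luminescence from ONE-Glo after 24 h compound exposure at 37C in HepG2 cells carrying hPXR-responsive CYP3A4 luciferase, plated in charcoal-stripped serum medium 5 h beforehand.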
row,Compound,Potency
1,C#C[C@]1(O)CC[C@H]2[C@@H]3CCc4cc(O)ccc4[C@H]3CC[C@@]21C,active: 27.1 µM and active: 27.3 µM and active: 23.7 µM
2,O=C(O)/C=C/c1ccc(Cn2ccnc2)cc1,inactive
3,COCCCOc1ccnc(CS(=O)c2nc3ccccc3[nH]2)c1C (centres undefined),active: 7.66 µM
4,COc1nc(N)nc2c1ncn2[C@@H]1O[C@H](CO)[C@@H](O)[C@@H]1O,inactive
5,CC(C(=O)O)c1ccc(C(=O)c2cccs2)cc1 (centres undefined),inactive
6,COc1c2occc2c(OC)c2c(=O)cc(C)oc12,inactive
7,C[C@H]1O[C@H](O[C@H]2[C@H](O)[C@@H](O)[C@@H](O[C@H]3[C@H](O)[C@@H](O)[C@H](O)O[C@@H]3CO)O[C@@H]2CO)[C@H](O)[C@@H](O)[C@@H]1N[C@H]1C=C(CO)[C@@H](O)[C@H](O)[C@H]1O,inactive
8,O=C(O)c1cn(-c2ccc(F)cc2)c2cc(N3CCNCC3)c(F)cc2c1=O,inactive
9,CS(=O)(=O)Nc1ccc([N+](=O)[O-])cc1Oc1ccccc1,inactive
10,CC1(C)OC(=O)NC1=O,inactive
11,OCCOCCN1CCN(C2=Nc3ccccc3Sc3ccccc32)CC1,active: 16.8 µM and active: 18.8 µM
12,CO/N=C(/C(=O)N[C@@H]1C(=O)N2C(C(=O)O)=C(COC(N)=O)CS[C@H]12)c1ccco1,inactive
13,CN1C(=O)CC[C@H]1c1cccnc1,inactive
14,CCCCOCCOCCOCc1cc2c(cc1CCC)OCO2,active: 4.92 µM and active: 11.9 µM
15,CCCCc1ncc(/C=C(\Cc2cccs2)C(=O)O)n1Cc1ccc(C(=O)O)cc1,inactive
16,CCCc1ncc(C[n+]2ccccc2C)c(N)n1,inactive

# Target: Nuclear receptor subfamily 1 group I member 2 (Homo sapiens) (UniProt O75469)
# Assay: CYP3A4 induction through human pregnane X receptor (PXR) by small molecules, qHTS assay (AID 1346984); further: nearly all actives have a fitted effect of over 40% in size
# Conditions: DPX-2 HepG2 PXR, CYP3A4-luciferin luminescence, 24 h; series mostly up to 46.1 µM
# Method in brief: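 Read-out is luminescence after One-Glo addition, following a 3 hr, 37C incubation with Luciferin-IPA CYP3A4 substrate (3uM final). Before that, compounds were on DPX-2 cells (HepG2 co-transfected with PXR element plus CYP3A4-promoter luciferase) for 24 hr at 37C.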
row,Compound,Potency
1,CC(N)CCCC(C)(C)O (centres undefined),inactive
2,NC(=O)NC1NC(=O)NC1=O (centres undefined),inactive
3,CC1=CC(=O)NS(=O)(=O)O1,inactive
4,NS(=O)(=O)Cc1noc2ccccc12,inactive
5,NC1=NCC2c3ccccc3Cc3ccccc3N12 (centres undefined),inactive
6,Cc1ncc[nH]1,inactive
7,CCn1cc(C(=O)O)c(=O)c2cnc(N3CCCC3)nc21,inactive
8,NCCNCCNCCN,inactive
9,O=C(O)CN(CCN(CC(=O)O)CC(=O)O)CC(=O)O,inactive
10,CC(=O)OCC1=C(C(=O)O)N2C(=O)[C@@H](NC(=O)CSc3ccncc3)[C@H]2SC1,inactive
11,ClC(Cl)Cl,inactive
12,O=C(NCCO[N+](=O)[O-])c1cccnc1,inactive
13,Cc1c(O)cccc1C(=O)N[C@@H](CSc1ccccc1)[C@H](O)CN1C[C@H]2CCCC[C@H]2C[C@H]1C(=O)NC(C)(C)C,inactive
14,O=C(O)/C=C/c1ccc(Cn2ccnc2)cc1,inactive
15,COCCCOc1ccnc(CS(=O)c2nc3ccccc3[nH]2)c1C (centres undefined),inactive
16,COc1nc(N)nc2c1ncn2[C@@H]1O[C@H](CO)[C@@H](O)[C@@H]1O,inactive
17,CC(C(=O)O)c1ccc(C(=O)c2cccs2)cc1 (centres undefined),inactive
18,COc1c2occc2c(OC)c2c(=O)cc(C)oc12,inactive
19,CS(=O)(=O)Nc1ccc([N+](=O)[O-])cc1Oc1ccccc1,inactive
20,CO/N=C(/C(=O)N[C@@H]1C(=O)N2C(C(=O)O)=C(COC(N)=O)CS[C@H]12)c1ccco1,inactive
21,CN1C(=O)CC[C@H]1c1cccnc1,inactive
22,CCCCOCCOCCOCc1cc2c(cc1CCC)OCO2,inactive
23,CCCCc1ncc(/C=C(\Cc2cccs2)C(=O)O)n1Cc1ccc(C(=O)O)cc1,inactive
